Test results published in patent US20060069040A1, “GHB compositions” (priority 2004, published 2006).

Assay: Solubility in saline
Assay type: physicochemical
Conditions: saline dosing solution; 0.48 mmol/kg

O=C(O)Cc1ccccc1 [PA, phenylacetic acid]
Greatest quantity that would dissolve in a saline solution: 66 mg/kg
